Screening data as filed in PubChem.
Sampled rows, rich in hits. Any-hit rate of the full collection: about 2.2%.
Nrf2 activator: Nrf2 pathway activation. AREc32 ARE-luciferase reporter (MCF7-derived line), luminescence, 24 h. Potency, µM (series often up to 46.1 µM), without a hit: at the top dose activation, hits mostly activators. 0.31% of 410,000 active. AID 624171; further: potency means the concentration at half of the fitted maximal effect; % of control where 0% means no effect; nearly all actives have a fitted effect of over 65% in size
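Each well held 1000 AREc32 cells, which were incubated with compound for 24 hr at 37 deg C after overnight attachment, and ARE reporter activity was quantified by firefly luciferase luminescence.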
miR-21 reporter: miR-21 reporter, rising signal. HeLa miR-21 FLuc reporter, luciferase, 48 h. Potency, µM (highest dose often 38.3 µM), for the others: at the highest dose reporter change, positive = more light. 340,000 tested, under 10 active. AID 2288; active = well fitted rising curve with a large enough effect; inconclusive = small, poorly fitted or top-dose-only effect; inactive = no such curve, though single readings can be large or run the other way;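 further: % of control where 0% means no effect; miR-21 action dims this reporter so a rising signal means less miR-21 action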
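HeLa cells endogenously expressing miR-21, stably carrying CMV-driven firefly luciferase with a downstream miR-21 binding site, 2000 cells/well. Titrations up to approximately 40 uM, 48 hours; luciferase luminescence read.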
Nrf2 block: blocks Nrf2 signaling; A549 ARE-Fluc reporter, luciferase luminescence, 18-24 h; Potency, µM (top dose mostly 46 µM), for the others: at the top dose activity change, negative = inhibition, hits mostly inhibitors; 2.1% of 360,000 active; further: potency means the concentration at half of the fitted maximal effect; on the % scale 0 is the no-effect control and ±100 the full control effect; nearly all actives have a fitted effect of over 60% in size
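Quantitative HTS in A549 cells stably bearing an antioxidant response element-firefly luciferase construct. Inhibition of Nrf2-driven transcription was scored by luminescence after 18-24 h of compound exposure at 37 °C.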
A549 tox: A549 cytotoxicity, counter-screen for Nrf2 inhibitors. Potency, µM (doses to about 46 µM), inactives show at the highest dose activity change, negative = cytotoxicity, hits mostly inhibitors. A549 ARE-Fluc cells, CellTiter-Fluor viability, 18-24 h. 0.16% of 390,000 active; further: potency means the concentration at half of the fitted maximal effect; on the % scale 0 is the no-effect control and ±100 the full control effect
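A549 ARE-Fluc cells in 5% FBS OPTI-MEM, 5000 cells/well, rested 2 h then exposed to compounds in concentration-response for 18-24 h at 37 °C. Viability by CellTiter-Fluor fluorescence (Ex 405/Em 525) after 30 min; luciferase luminescence (BugLite, 15 min, RT) read afterwards.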
PI4K2A inh: inhibitors of human PI4K2A; Q9BTU6; purified PI4K2A, ADP-Glo luminescence, 1 h; stronger effect = lower value; activity change, negative = inhibition, % at 76.9 µM; 0.13% of 420,000 active; in the data active means activity change below about -50%; inconclusive means mostly about -30% to -49%;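 further: -100% = wells without enzyme as full effect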
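ADP-Glo luminescence measured ADP generated by PI4K2A enzyme (4 ug/mL before mixing) with 1.2 mM PI substrate (pre-mix) and 300 microM ATP (pre-mix). Tris pH7.5 buffer with MgCl2, Triton X-100; 1 h reaction at ambient temperature.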
GALK inh: galactokinase (human) inhibition | Purified GALK, Kinase-Glo residual ATP luminescence | Potency, µM (series often up to 57.5 µM), for inactives: top-dose activity change, negative = inhibition, most hits filed as inhibitors | 0.007% of 270,000 active | AID 1868; further: potency means the concentration at half of the fitted maximal effect; on the % scale 0 is the no-effect control and ±100 the full control effect
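Quantitative HTS: GALK 5 nM, ATP 35 uM, galactose 100 uM, 1 h room temperature, then luciferase-based ATP detection.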
* marks the source's active call; other numbers are inactive results; u = inconclusive; x = no result. Unless noted, the call rests on the fitted dose curve; in most records, active means well fitted curve in the direction sought with a large enough effect; inconclusive means small, poorly fitted or top-dose-only effect, or another doubt; inactive means no such curve, though single readings can be large; an effect the other way counts as inactive or inconclusive.

Values run as follows: Nrf2 activator	miR-21 reporter	Nrf2 block	A549 tox	PI4K2A inh	GALK inh
> CSc1nn(CC(=O)Nc2cc(C)ccc2C)c(N)c1S(=O)(=O)c1ccccc1
  0%	15%	21µM*	-4%	3	x
> CCOC(=O)c1ccc(NC(=O)Cn2nc(SC)c(S(=O)(=O)c3ccc(Cl)cc3)c2N)cc1
  -3%	u	u	-10%	2	x
> CCSc1nn(CC(=O)Nc2ccc(C(=O)OC)cc2)c(N)c1S(=O)(=O)c1ccc(C)cc1
  0%	20%	23µM*	-15%	0	x
> Cc1ccc(CNC2CCC23CCC(c2ccccc2)CC3)o1 (stereo not drawn)
  x	x	x	x	2	x
> Cn1c(=O)n(C)c2cc(NC(=O)CCl)ccc21
  u	u	18µM*	u	4	-1%
> Clc1nc(NCc2cccs2)c2[nH]cnc2n1
  x	x	23µM*	-2%	x	x
> c1csc(CNc2ncnc3nc[nH]c23)c1
  0%	-19%	u	0%	-5	-1%
> Cn1c2ccsc2c2cnn(Cc3ccccc3F)c(=O)c21
  x	x	18%	-5%	x	x
> COc1ccc(CNC(=O)c2c(N)n(CCCN3CCOCC3)c3nc4ccccc4nc23)cc1
  -3%	u	16µM*	x	1	0%
> Cc1ccc2c(c1)C(CS(=O)(=O)NCc1ccccc1)NC2 (stereo not drawn)
  x	x	x	x	-1	x

In a second layout: results already given.
Compound	Nrf2 activator	miR-21 reporter	Nrf2 block	A549 tox	PI4K2A inh	GALK inh
Cc1ccc(CNC2CCC23CCC(c2ccccc2)CC3)o1 (stereo not drawn)	x	x	x	x	2	x
Cn1c(=O)n(C)c2cc(NC(=O)CCl)ccc21	u	u	18µM*	u	4	-1%
Clc1nc(NCc2cccs2)c2[nH]cnc2n1	x	x	23µM*	-2%	x	x
c1csc(CNc2ncnc3nc[nH]c23)c1	0%	-19%	u	0%	-5	-1%

Other records:
Values run as follows: Nrf2 activator	miR-21 reporter	Nrf2 block	A549 tox	PI4K2A inh	GALK inh
> Clc1ccccc1-c1nn2c(-c3cc(-c4ccccc4)n[nH]3)nnc2s1
  x	x	23µM*	-15%	-2	x
> COc1ccc(OC)c(C(=O)COC(=O)c2ccccc2O)c1
  13µM*	-42%	0%	-2%	2	0%
> Cn1nnc(-c2ccc(OCc3ccccc3F)cc2)n1
  -1%	-50%	u	-2%	-56*	2%
> Fc1ccccc1COc1ccc(-c2nnn(Cc3ccccc3F)n2)cc1
  0%	-4%	-1%	0%	0	2%
> CC(=O)N1[C@@H](CO)[C@@H](c2ccc(-c3cccc(F)c3)cc2)[C@@H]1CNCC1CCC1
  x	x	x	x	-1	x
> COc1cccc(C(=O)NCc2cn3ccccc3n2)c1
  9%	18%	23µM*	-1%	-7	x
> O=C(NCc1cn2ccccc2n1)c1ccccc1
  3%	-11%	20%	1%	0	2%
> Cc1cc(C)n2nc(SCC(=O)Nc3ccccc3F)nc2n1
  -1%	x	0%	1%	-2	x
> Cc1cc(C)n2nc(SCC(=O)Nc3ccc(F)c(F)c3F)nc2n1
  0%	x	15µM*	-12%	1	x
> CC(C)CC(=O)/C=C/n1c(=S)oc2ccccc21
  11µM*	-1%	20%	-5%	-4	-1%
> Cc1nc(N2CCN(C(=O)C3CCCCC3)CC2)c2c3c(sc2n1)CCCC3
  x	x	x	x	-4	x
> CC(C)(C)n1nnnc1C(c1ccc(C(F)(F)F)cc1)N(Cc1ccccc1)Cc1ccco1 (stereo not drawn)
  -1%	-2%	15µM*	-27%	18	-3%
> CC(C)(C)n1nnnc1C(c1ccc(C(F)(F)F)cc1)N(Cc1ccc(F)cc1)Cc1ccco1 (stereo not drawn)
  5%	5%	u	-23%	-4	1%
> Cc1ccc(Oc2nnc(-c3cccs3)c3ccccc23)cc1C
  1%	-4%	18µM*	-8%	-3	0%
> COC(=O)c1nc(NC(=O)c2ccccc2Cl)n[nH]1
  -1%	4%	26µM*	-2%	0	0%
> O=C(CCS(=O)(=O)c1ccccc1)Nc1ccc(F)cc1F
  x	x	x	x	-2	x
> CC[C@@H]1/C(=C/c2ccccc2)N2C(=O)C[C@@H](c3ccccc3)N=C2N1Cc1ccc(OC)cc1OC
  x	x	x	x	-3	x
> CCOc1ccc2[nH]c(=O)c(C(c3nnnn3Cc3ccco3)N3CCN(C)CC3)cc2c1 (stereo not drawn)
  0%	21%	7%	-4%	0	1µM*
> CC(=O)/C=C/C=C1/C2CCC(C2)C1(C)C (stereo not drawn)
  x	x	x	x	3	x
> N/C(=N\OC(=O)c1cccs1)c1cccc(Br)c1
  11µM*	-64%	u	-1%	-4	1%
